Key:
[1] = molecular target: Histone deacetylase 1 (Homo sapiens, UniProt Q13547); test: Inhibition of human recombinant HDAC1 expressed in baculovirus/sf9 cells using RHKKAc as substrate
[2] = molecular target: Amyloid-beta precursor protein (Homo sapiens, UniProt P05067); test: Inhibition of amyloid beta aggregation (unknown origin) after 4 hrs by thioflavin S assay in absence of Zn2+

Protein sequences, listed by entry. Tags and fused reporters are not part of them.
UniProt Q13547, whole entry: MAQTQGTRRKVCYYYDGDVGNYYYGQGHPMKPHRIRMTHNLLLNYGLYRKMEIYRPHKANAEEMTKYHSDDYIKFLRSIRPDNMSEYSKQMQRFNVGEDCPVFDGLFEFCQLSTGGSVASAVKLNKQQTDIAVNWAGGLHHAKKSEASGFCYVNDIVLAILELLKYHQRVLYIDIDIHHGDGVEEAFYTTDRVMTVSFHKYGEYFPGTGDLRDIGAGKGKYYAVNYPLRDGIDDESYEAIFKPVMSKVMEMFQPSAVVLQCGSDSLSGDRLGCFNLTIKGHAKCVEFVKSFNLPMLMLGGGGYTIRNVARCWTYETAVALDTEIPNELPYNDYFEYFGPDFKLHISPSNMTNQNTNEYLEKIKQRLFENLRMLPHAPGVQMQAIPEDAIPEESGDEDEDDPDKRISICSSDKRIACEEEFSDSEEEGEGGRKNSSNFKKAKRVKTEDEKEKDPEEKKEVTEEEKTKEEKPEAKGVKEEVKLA
UniProt P05067, whole entry: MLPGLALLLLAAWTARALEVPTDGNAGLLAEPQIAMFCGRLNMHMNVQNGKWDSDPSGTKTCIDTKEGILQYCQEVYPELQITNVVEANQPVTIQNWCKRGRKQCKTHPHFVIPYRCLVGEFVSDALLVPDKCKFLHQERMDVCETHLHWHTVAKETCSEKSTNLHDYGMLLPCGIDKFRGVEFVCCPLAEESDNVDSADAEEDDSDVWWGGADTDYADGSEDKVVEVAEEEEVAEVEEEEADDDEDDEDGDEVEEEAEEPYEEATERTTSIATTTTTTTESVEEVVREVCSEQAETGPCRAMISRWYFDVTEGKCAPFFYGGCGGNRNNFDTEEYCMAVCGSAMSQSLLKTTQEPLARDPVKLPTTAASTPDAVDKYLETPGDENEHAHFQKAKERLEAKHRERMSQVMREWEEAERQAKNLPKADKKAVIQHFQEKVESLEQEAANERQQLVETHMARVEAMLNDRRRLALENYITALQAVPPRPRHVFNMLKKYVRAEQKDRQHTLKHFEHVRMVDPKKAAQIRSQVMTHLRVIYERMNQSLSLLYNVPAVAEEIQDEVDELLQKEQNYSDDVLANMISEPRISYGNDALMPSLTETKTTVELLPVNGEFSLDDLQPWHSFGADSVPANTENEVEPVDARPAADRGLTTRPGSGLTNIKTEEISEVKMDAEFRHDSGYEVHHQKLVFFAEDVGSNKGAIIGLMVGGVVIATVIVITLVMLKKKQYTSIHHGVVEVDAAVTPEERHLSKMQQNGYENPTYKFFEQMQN

For `Cc1nc2cc(/C=C/C(=O)NO)ccc2c(=O)n1-c1ccccc1`, which IC50 [1] is on record?
Its IC50 is 4.89 µM.

What about the IC50 [2] of the same compound?
The IC50 was over 50 µM.
